This passage reports Ki results from BindingDB's records for doi:10.1021/bi00180a024 (Medical University of South Carolina, 1994).

Sequences of proteins named here, by UniProt entry; tags and fusion partners are left off.
UniProt P08908, whole entry: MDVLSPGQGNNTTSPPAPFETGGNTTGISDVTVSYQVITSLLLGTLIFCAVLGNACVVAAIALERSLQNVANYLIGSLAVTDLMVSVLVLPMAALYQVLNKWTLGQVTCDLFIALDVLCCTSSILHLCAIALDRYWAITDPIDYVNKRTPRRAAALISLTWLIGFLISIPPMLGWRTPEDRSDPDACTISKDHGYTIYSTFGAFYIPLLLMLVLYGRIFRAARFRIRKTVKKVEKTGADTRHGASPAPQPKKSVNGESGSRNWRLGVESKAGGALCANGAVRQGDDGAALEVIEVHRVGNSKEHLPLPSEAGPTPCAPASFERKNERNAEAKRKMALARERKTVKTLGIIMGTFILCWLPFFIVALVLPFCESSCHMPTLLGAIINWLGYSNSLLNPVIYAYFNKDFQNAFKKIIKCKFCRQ

Each structure is given as a SMILES string.

For this assay, the target named is 5-hydroxytryptamine receptor 1A (Homo sapiens, UniProt P08908).

As a reminder, the Ki is a dissociation constant, usually derived from enzyme kinetics or from competition with a known ligand. Read a high Ki as lower affinity. As for `COC(=O)[C@@H]1[C@H]2C[C@H]3c4[nH]c5ccccc5c4CCN3C[C@@H]2CC[C@@H]1O` [yohimbic acid methyl ester], the affinity, expressed as Ki, was 1.5 µM. That is a single-digit micromolar value.
